Values of other authors in patent publication US5462929A, “Treatment of psoriasis by administration of 4-carbamoyl-1-β-D-ribofuranosylimidszolium-5-oleate” (Asahi Kasei Kogyo Kabushiki Kaisha, priority 1991, dated 1995).

Tested on: rats
Details: female, p.o.; cited from earlier work

NC(=O)c1ncn([C@@H]2O[C@H](CO)[C@@H](O)[C@H]2O)c1O [Mizoribine, 4-carbamoyl-1-β-D-ribofuranosyl-imidazolium-5-olate]
LD50: > 2847 mg/kg
